The values that follow are results of earlier work, collected in US20040142333A1, “Novel secreted proteins and their uses” (priority 2000, published 2004).

Sequences of proteins named here, by UniProt entry; tags and fusion partners are left off. Residues count along the entry.
UniProt P08254, 100-477, species assumed: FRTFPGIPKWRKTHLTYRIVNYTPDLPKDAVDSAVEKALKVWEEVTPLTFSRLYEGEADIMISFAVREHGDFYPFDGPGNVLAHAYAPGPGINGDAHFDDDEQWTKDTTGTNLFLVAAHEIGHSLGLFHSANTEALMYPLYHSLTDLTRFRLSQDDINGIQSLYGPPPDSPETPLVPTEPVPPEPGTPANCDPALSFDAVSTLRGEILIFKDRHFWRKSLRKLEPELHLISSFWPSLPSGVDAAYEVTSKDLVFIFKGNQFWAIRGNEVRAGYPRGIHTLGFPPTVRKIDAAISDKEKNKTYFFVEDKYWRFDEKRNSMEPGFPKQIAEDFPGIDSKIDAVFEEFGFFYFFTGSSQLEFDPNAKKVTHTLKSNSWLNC

The data set addresses MMP-3 (Homo sapiens, UniProt P08254). Particulars: read-out: Ki against MMP-3.

Regarding `COc1ccc(S(=O)(=O)N(CC(=O)NO)CC(C)C)cc1` [MMP-3 inhibitor II], the inhibition constant (Ki) – broadly, the dissociation constant of the complex between target and ligand, obtained from inhibition or displacement – is 130 nM.
